Reference: patent publication US6770442B2, “Methods for modulating the solubility of synthetic polymers” (Boston Probes, Inc., priority 1998, dated 2004)

Settings: for solubility (concentration at which soluble / not soluble): stock PNA solution for labeling

Substance | solubility (concentration at which soluble / not soluble) | solubility (at pH 8.5)
H-OE-TTA-GGG-TTA-GGG-TTA-GGG-EE-NH2 | ≥ 0.05 OD/μL | –
H-OO-TTA-GGG-TTA-GGG-TTA-GGG-NH2 | < 0.05 OD/μL | extremely insoluble
